Reference: patent US20220089743A1 (Chugai, published 2022)

Experiments:
[1] = biological target: HLA-DQ2.5 on IHW09023 cells loaded with 33 mer gliadin peptide (human; wheat); experiment: cell-based or functional assay
[2] = biological target: HLA-DQ2.5 on IHW09023 cells loaded with omega1/2 gliadin peptide (human; wheat); experiment: cell-based or functional assay

Row | Binder | IC50, α1a gliadin TCR, 250 nM 33mer gliadin [1] | IC50, ω2 gliadin TCR, 250 nM ω1/2 gliadin [2]
1 | DQN0344H0976/L0591//DQN0385H1270/L0681-F6 (bispecific antibody) heavy 1: QVQLVESGGGVVQPGGSLRLSCAASGFTFSSAYWMVWVRQAPGQGLEWMGAVYGGSDTTYYAKWTEGRFTISRDTSKNTLYLQMNSLRAEDTAVYYCAREPLNYYYYGELNLWGQGTLVTVSSASTKGPSVFPLAPSSKSTSGGTAALGCLVKDYFPEPVTVSWNSGALTSGVHTFPAVLKSSGLYSLSSVVTVPSSSLGTQTYICNVNHKPSNTKVDKRVEPKSCDKTHTCPPCPAPELRRGPSVFLFPPKPKDTLMISRTPEVTCVVVDVSHEDPEVKFNWYVDGVEVHNAKTKPREEQYNSTYRVVSVLTVLHQDWLNGKEYKCKVSNKALPAPIEKTISKAKGQPREPQVYTLPPSREEMTKNQVSLTCLVKGFYPSDIAVEWESNGQPENNYKTTPPYLDSDGSFFLYSKLTVDKSRWQEGNVFSCSVLHEALHAHYTREELSLSP light 1: DIQMTQSPSSLSASVGDRVTITCQATEEIYSGLAWYQQKPGKAPKLLIYYVSTLYEGIPARFSGSGSGTDFTLTISSLEPEDFAVYYCQTYEDVSAVTFGQGTKVEIKRTVAAPSVFIFPPSDEQLKSGTAEVVCLLNNFYPREAKVQWKVDNALQSGNSEESVTEQDSKDSTYSLSSTLTLSKADYEKHKVYACEVTHQGLSSPVTKSFNRGEC heavy 2: QVQLVESGGGVVQPGRSLRLSCAASGFTFSEWYFMSWVRQAPGKGLEWVASIDTGSGSIDYAEWVEGRFTISRDNSKNTLYLQMNSLRAEDTAVYYCARDIGIDYNFWGPGTLVTVSSASTKGPSVFPLAPSSKSTSGGTAALGCLVEDYFPEPVTVSWNSGALTSGVHTFPAVLESSGLYSLSSVVTVPSSSLGTKTYICNVNHKPSNTKVDKRVEPKSCDKTHTCPPCPAPELRRGPSVFLFPPKPKDTLMISRTPEVTCVVVDVSHEDPEVKFNWYVDGVEVHNAKTKPREEQYNSTYRVVSVLTVLHQDWLNGKEYKCKVSNKALPAPIEKTISKAKGQPREPQVYTLPPSRKEMTKNQVSLTCLVKGFYPSDIAVEWESNGQPENNYKTTPPYLDSDGSFFLYSKLTVDKSRWQQGNVFSCSVLHEALHAHYTRKELSLSP light 2: DIQMTQSPSSLSASVGDRVTITCQTTQSISSYLNWYQQKPGQPPKLLIYYASTKAEGIPARFSGSGLGTDFTLTISSLEPEDFAVYYCHYGISKVSFGQGTKVEIKRTVAAPSVFIFPPSDEQLKSGTAKVVCLLNNFYPREAKVQWKVDNALQSGNSKESVTEQDSKDSTYSLSSTLTLSKADYEKHKVYACEVTHQGLSSPVTKSFNRGEC | 0.58 ng/mL | 
2 | DQN0344H1013/L0620//DQN0385H1521/L0605-F6 (bispecific antibody) heavy 1: QVQLVESGGGVVQPGRSLRLSCAASGFTFSSAYWMVWVRQAPGQGLEWMGAVYGGSDTTYYAKWTEGRFTISRDTSKNTLYLQMNSLRAEDTAVYYCAREPLNYYYYGELNVWGQGTLVTVSSASTKGPSVFPLAPSSKSTSGGTAALGCLVKDYFPEPVTVSWNSGALTSGVHTFPAVLKSSGLYSLSSVVTVPSSSLGTQTYICNVNHKPSNTKVDKRVEPKSCDKTHTCPPCPAPELRRGPSVFLFPPKPKDTLMISRTPEVTCVVVDVSHEDPEVKFNWYVDGVEVHNAKTKPREEQYNSTYRVVSVLTVLHQDWLNGKEYKCKVSNKALPAPIEKTISKAKGQPREPQVYTLPPSREEMTKNQVSLTCLVKGFYPSDIAVEWESNGQPENNYKTTPPYLDSDGSFFLYSKLTVDKSRWQEGNVFSCSVLHEALHAHYTREELSLSP light 1: DIQMTQSPSSLSASVGDRVTITCQATENIYSGLAWYQQKPGKAPKLLIYYVSTLAYGIPARFSGSGSGTDFTLTISSLEPEDFAVYYCQTYEDVSAVTFGQGTKVEIKRTVAAPSVFIFPPSDEQLKSGTAEVVCLLNNFYPREAKVQWKVDNALQSGNSEESVTEQDSKDSTYSLSSTLTLSKADYEKHKVYACEVTHQGLSSPVTKSFNRGEC heavy 2: QVQLVESGGGVVQPGRSLRLSCAASGFTFESWYFMSWVRQAPGKGLEWVASIDTGSGSIDYAEWVEGRFTISRDNSKNTLYLQMNSLRAEDTAVYYCARDIGIDYNFWGPGTLVTVSSASTKGPSVFPLAPSSKSTSGGTAALGCLVEDYFPEPVTVSWNSGALTSGVHTFPAVLESSGLYSLSSVVTVPSSSLGTKTYICNVNHKPSNTKVDKRVEPKSCDKTHTCPPCPAPELRRGPSVFLFPPKPKDTLMISRTPEVTCVVVDVSHEDPEVKFNWYVDGVEVHNAKTKPREEQYNSTYRVVSVLTVLHQDWLNGKEYKCKVSNKALPAPIEKTISKAKGQPREPQVYTLPPSRKEMTKNQVSLTCLVKGFYPSDIAVEWESNGQPENNYKTTPPYLDSDGSFFLYSKLTVDKSRWQQGNVFSCSVLHEALHAHYTRKELSLSP light 2: DIQMTQSPSSLSASVGDRVTITCQTTQSISSYLNWYQQKPGQPPKLLIYYASTKAEGIPARFSGSGSGTDFTLTISSLEPEDFAVYYCHYGISKVSFGQGTKVEIKRTVAAPSVFIFPPSDEQLKSGTAKVVCLLNNFYPREAKVQWKVDNALQSGNSKESVTEQDSKDSTYSLSSTLTLSKADYEKHKVYACEVTHQGLSSPVTKSFNRGEC |  | 0.19 ng/mL
